Consider one molecule from US10183937B2.

Amino acid sequences for entries named in this document (tags omitted).
UniProt P11712, whole entry: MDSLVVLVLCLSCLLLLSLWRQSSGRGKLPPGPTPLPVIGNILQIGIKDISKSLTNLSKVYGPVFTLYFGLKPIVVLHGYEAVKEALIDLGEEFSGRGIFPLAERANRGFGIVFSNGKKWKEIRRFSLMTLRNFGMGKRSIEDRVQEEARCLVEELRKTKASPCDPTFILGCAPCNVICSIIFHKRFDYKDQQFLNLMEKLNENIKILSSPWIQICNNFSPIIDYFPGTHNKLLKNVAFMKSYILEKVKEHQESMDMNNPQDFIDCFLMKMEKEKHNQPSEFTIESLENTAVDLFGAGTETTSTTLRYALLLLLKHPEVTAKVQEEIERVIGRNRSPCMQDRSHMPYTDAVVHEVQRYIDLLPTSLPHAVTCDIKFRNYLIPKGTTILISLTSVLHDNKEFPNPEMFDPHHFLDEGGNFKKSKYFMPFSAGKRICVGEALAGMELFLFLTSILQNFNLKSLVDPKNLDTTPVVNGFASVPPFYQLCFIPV
UniProt P08684, whole entry: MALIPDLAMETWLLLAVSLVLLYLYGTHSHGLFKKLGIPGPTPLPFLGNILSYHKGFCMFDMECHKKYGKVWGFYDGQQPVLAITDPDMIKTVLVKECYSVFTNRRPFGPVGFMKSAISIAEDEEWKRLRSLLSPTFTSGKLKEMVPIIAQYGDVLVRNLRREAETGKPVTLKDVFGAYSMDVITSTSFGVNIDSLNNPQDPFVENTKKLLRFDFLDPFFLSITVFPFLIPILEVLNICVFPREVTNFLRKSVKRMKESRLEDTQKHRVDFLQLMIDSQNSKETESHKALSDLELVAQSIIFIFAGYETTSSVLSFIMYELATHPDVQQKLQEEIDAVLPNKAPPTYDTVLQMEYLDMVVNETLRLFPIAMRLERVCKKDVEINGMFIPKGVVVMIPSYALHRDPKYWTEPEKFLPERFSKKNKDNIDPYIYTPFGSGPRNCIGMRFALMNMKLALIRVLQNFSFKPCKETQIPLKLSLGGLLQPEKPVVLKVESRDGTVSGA
UniProt P05177, whole entry: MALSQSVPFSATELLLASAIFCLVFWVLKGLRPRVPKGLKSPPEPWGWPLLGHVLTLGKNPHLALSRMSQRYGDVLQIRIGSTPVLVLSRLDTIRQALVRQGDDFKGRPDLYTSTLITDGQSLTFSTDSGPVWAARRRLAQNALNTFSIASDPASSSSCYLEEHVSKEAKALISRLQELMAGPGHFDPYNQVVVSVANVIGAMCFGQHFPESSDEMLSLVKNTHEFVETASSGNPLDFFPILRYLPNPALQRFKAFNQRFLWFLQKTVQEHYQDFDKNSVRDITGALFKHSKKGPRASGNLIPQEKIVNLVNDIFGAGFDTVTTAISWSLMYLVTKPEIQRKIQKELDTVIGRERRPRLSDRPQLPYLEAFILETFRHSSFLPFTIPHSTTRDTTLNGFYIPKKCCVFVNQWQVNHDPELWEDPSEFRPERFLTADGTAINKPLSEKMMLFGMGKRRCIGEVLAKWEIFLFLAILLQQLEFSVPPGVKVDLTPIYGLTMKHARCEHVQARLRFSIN
UniProt P10632, whole entry: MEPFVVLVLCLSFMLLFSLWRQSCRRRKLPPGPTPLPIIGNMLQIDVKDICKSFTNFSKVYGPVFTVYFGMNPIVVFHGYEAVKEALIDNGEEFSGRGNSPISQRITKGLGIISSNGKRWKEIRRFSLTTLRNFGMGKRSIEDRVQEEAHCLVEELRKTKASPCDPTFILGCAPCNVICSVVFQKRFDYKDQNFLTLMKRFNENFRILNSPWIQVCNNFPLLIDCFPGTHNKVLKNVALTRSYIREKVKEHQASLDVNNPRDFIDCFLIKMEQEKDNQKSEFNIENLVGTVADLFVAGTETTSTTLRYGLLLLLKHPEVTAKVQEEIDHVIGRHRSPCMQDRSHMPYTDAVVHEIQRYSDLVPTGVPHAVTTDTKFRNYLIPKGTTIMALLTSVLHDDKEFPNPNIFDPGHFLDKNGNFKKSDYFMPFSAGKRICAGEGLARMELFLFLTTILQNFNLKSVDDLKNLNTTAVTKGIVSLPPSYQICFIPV
UniProt P10635, whole entry: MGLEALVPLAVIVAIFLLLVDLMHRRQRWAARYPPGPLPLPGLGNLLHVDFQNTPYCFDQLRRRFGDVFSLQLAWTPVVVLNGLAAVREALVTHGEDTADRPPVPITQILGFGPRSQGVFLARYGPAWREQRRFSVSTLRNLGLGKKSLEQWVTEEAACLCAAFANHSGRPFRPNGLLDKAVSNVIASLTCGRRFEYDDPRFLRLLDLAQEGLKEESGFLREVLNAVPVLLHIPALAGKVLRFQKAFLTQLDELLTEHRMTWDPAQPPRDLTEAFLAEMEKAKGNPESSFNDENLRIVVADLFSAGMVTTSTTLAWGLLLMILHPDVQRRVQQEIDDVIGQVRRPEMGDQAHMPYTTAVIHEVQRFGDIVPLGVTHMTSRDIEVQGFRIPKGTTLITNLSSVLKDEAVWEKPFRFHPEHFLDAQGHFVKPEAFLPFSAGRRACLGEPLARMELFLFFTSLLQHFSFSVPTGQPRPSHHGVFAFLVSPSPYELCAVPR

Series [1] can be described thus: Human liver cytosol stability assay. Format: in vitro ADME. As to conditions: 4 h incubation.
Another series concerns the target CYP2C9 (Homo sapiens (Human), UniProt P11712). The series is described as follows: CYP inhibition assay in human liver microsomes, CYP2C9. The series is classed as in vitro ADME. The following applies: read-out: CYP2C9 IC50, probe diclofenac. A general note: Liver microsomes are a subcellular fraction often used to study metabolism.
Series [2] addresses T1, CYP3A4 (Homo sapiens (Human), UniProt P08684). The series is described as follows: CYP inhibition assay in human liver microsomes, CYP3A4. As to conditions: read-out: CYP3A4 IC50, probe midazolam. Format: in vitro ADME.
Series [3] concerns the target T1, CYP3A4. Kind of series: Pre-incubation CYP inhibition assay. Format: in vitro ADME. The following applies: read-out: CYP3A4 with preincubation IC50; 30 min pre-incubation.
The target of a further series is CYP1A2 (Homo sapiens (Human), UniProt P05177).
For the next series, the target named is CYP2C8 (Homo sapiens (Human), UniProt P10632).
The next series deals with CYP2D6 (Homo sapiens (Human), UniProt P10635).

Broadly, the IC50 is the concentration needed to halve the response being measured.

For `Cc1ccc(-c2cc(OC3CCOC3)cc(C(=O)N[C@H](C)c3ccc(C)nc3)c2)nc1` (stereo partly shown), the “Test compound turnover after 4 h” value in series [1] came to 55%. The IC50 was 19.8 µM on CYP2C9; > 20 µM at CYP3A4 [2]; 18 µM at CYP3A4 [3]; > 20 µM at CYP1A2; > 20 µM at CYP2C8; > 20 µM against CYP2D6.
